Results: US6368788B1 (priority 1987, dated 2002)
“Also recorded” adds a separate entry of the source.

Columns and labels:
[1] = Ophthalmic diseases, parabulbar or conjunctival instillation; parameters: species or system human; details: in vivo
Description: Forty one patients (41; 17 men and 24 women; ranging in age from 17 to 68 years) with various eye diseases of infectious and non-infectious origin were treated with L-Glu-L-Trp. Patients having the following infectious, and non-infectious, ophthalmic diseases were entered into the trial: a) nonviral conjunctivitis, keratitis, chronic uveitis, persistent sties, and, focal chorioretinitis; and, b) retinal pigment dystrophy, Grenblad-Stranberg syndrome, and maculophathy, respectively. Five patients were Class II invalids due to vision impairment, 4 were Class III, and 32 were impaired but not invalid. […] L-Glu-L-Trp was administered daily in a single 0.1 mL (10 μg) dose by the parabulbar route (Group 1; n=21), or alternatively one drop of the dipeptide solution (5 μg) was delivered into the conjunctival cavity twice daily on each of 5 consecutive days (Group 2; n=20). Thirty six patients undergoing conventional therapy served as a control group (Group 3; n=36). […]
Vision was assessed using standard measurements: i.e., field of vision, visual acuity, electrophysiological indices. […] Immune parameters in peripheral blood were also assessed. […]

T-lymphocyte function = assay: Naval specialists with occupational immunologic impairments; parameters: species or system human; details: in vivo
Description: A clinical trial was conducted of 152 naval specialists (aged 20-40 years) with evidence of occupational immunologic impairments resulting from their exposure to radiation and occupational toxins in the Kosomolets nuclear submarine sinking off the coast of […]. L-Glu-L-Trp was evaluated for its possible effects on cellular and/or humoral immunity. Approximately 87% of the servicemen entered into the trial had moderate to severely impaired T-lymphocyte functional activity, (i.e., evidenced by decreased LMIR and blastogenesis with Con-A) and reduced neutrophil phagocytic activity (i.e., 30-40% of normal). Immune parameters were determined before and after a routine 21-24 day rest period, during a normal rest/recuperation and training rotation. Servicemen were divided into two groups, the first (control) group received no treatment, and the second (experimental) group of 88 servicemen received three consecutive daily intranasal doses of 100 mcg L-Glu-L-Trp.

[2] = Pleuritis / suppurative lung diseases, combined antibiotic therapy (Protocol K); parameters: species or system human; details: in vivo
Description: Efficacy of L-Glu-L-Trp in combined antibiotic therapy was evaluated in twelve male patients (aged 18 to 45) with suppurative lung diseases that were poorly responsive to antibiotic therapy and accompanied by diffuse pleuritis, disseminated intravascular coagulation (DIC), pleural effusions, and fever. […] L-Glu-L-Trp was administered to these patients as a treatment of nearly last resort, and as part of the ongoing (unsuccessful) regimen of broad spectrum antibiotic therapy: i.e., 200 μg of L-Glu-L-Trp was administered im daily over a period of 5-7 days. […] In addition, T-cell counts in peripheral blood increased and IgG, IgM, and IgA increased (TABLE 17) and C-reactive protein levels fell (TABLE 16).

Acute toxicity studies = format: in vivo, mice, guinea pigs, chickens, and dogs
Source text: L-Glu-L-Trp, when injected im at dosages calculated to be about 10,000-times the therapeutic dosage, was non toxic in mice, guinea pigs, chickens, and dogs as determined by monitoring general condition, behavior, movements, cardiac and respiratory physiology, and gross pathology.

[3] = test system: human and guinea pig lymphocytes; assay: Toxicity to lymphocytes in vitro; format: cell-based
[4] = test system: Human Peripheral Blood Lymphocytes; assay: Analysis of possible chromosomal damage (mutagenicity), 24 hrs incubation in vitro; format: cell-based; details: for Metaphases chromosome aberrations, #: 1000 analysed metaphases
Description: On peripheral blood of human volunteers in vitro. Cell cultures were incubated and treated.

[5] = Chronic toxicity studies, daily im or iv for 30 days; format: in vivo; details: daily single im or iv
Description: Kidney function was determined by evaluation of diuresis after water-loading; for certain other experiments animals were sacrificed and examined after 10, 20, 30, and 60 days.

Dengue virus = assay: Hemorrhagic Dengue Fever Protocol A; parameters: species or system human; details: in vivo
Description: L-Glu-L-Trp was administered to 21 patients with hemorrhagic Dengue Fever, and 28 patients receiving conventional therapy served as controls. L-Glu-L-Trp was administered im single daily doses of 100 μg on each of 5 consecutive days as an adjunct to ongoing conventional therapy. […] The investigators also observed that L-Glu-L-Trp treated patients experienced a reduction in muscle and bone pain. Immunological indices in peripheral blood were also normalized.
Forty nine patients (20-30 years of age; Kinh nationality) with diagnosed Dengue Fever were entered into the trial. The patients were referred to the 175th Military Hospital in Ho Chi Minh City at the time of an epidemic of Dengue fever in the South […] Republic of Vietnam. Diagnosis was based on the criteria recommended by the World Health Organization (1986) using medical histories, and clinical and laboratory data. […] Leukocytes during peak episodes of disease were recorded to be 4.60±0.17×10^9/L, and the absolute number of lymphocytes varied widely from 0.95 to 4.29×10^9/L.
Group 1 received conventional maintenance therapy consisting of detoxifying preparations and methods, e.g., fluids, fever control agents and the like. […] The efficacy of the respective treatment protocols was evaluated by recording the most frequently used clinical indicia of Dengue disease activity: namely, the clinical indicia recorded in TABLE 45.

[6] = Clinical tests, summary across the illustrative Examples; details: in vivo
[7] = Pharmacokinetic studies: labeled L-Glu-L-Trp by intranasal instillation; format: in vivo, experimental animals
Description: L-Glu-L-Trp treatment was administered by two different routes: namely, im (Group 1A) and intranasally (Group 1B). Group 1 A consisted of 17 patients (ie., 17 of the 36 patients in Group 1) who were treated with L-Glu-L-Trp by intramuscular injection of 100 μg daily for 5 days. Group 1B, the remaining 19 patients in Group 1, received L-Glu-L-Trp by intranasal instillation, daily for 5 days, of 1 mL of a 0.01% solution.

[8] = Solubility of the purified dipeptide; format: physicochemical
Source text: Conveniently, the subject R′-Glu-Trp-R″ dipeptide is synthesized by any of a number of automated techniques that are now commonly available. Generally speaking, these techniques involve stepwise synthesis by successive additions of amino acids to produce progressively larger molecules. The amino acids are linked together by condensation between the carboxyl group of one amino acid and the amino group of another amino acid to form a peptide bond. To control these reactions, it is necessary to block the amino group of one amino acid and the carboxyl group of the other. The blocking groups should be selected for easy removal without adversely affecting the peptides, i.e., by racemization or by hydrolysis of the formed peptide bonds. Amino acids with carboxyl- groups (e.g., Asp, Glu) or hydroxyl- groups (e.g., Ser, homoserine, and Tyr) also require blocking prior to condensation. A wide variety of procedures exist for synthesis of peptides, solid-phase synthesis usually being preferred. In this procedure an amino acid is bound to a resin particle, and the peptide generated in a stepwise manner by successive additions of protected amino acids to the growing chain. Modifications of the technique described by Merrifield are commonly used (Merrifield, R. B., J. Am. Chem. Soc., 96: 2989-2993, 1964)). […]

[9] = Chronic liver disease: jaundice and systemic toxicity; format: in vivo, human; details: 2 with autoantibodies, 2 cryptogenic cirrhosis
[10] = im injections

L-Glu-L-Trp
Unfavorable response [1]: No unfavorable response to therapy was observed | Side-effects (T-lymphocyte function): no observed side-effects or indications of any intolerance | Allergic or adverse effects [2]: No allergic or adverse effects | Toxicity when injected intraperitoneally (Acute toxicity studies; guinea pigs and mice): non-toxic | Acute toxicity (Acute toxicity studies; im, about 10,000-times the therapeutic dosage): non toxic | Toxicity to lymphocytes in vitro [3]: non-toxic | Patients with short-lived aggravation of the dermal diseases (Staphylococci; Stage 1, after second day): 20 of the 36 | Side effects or allergic reactions (Staphylococci; in vivo): No side effects or allergic reactions were observed | Mutagenic effect in vitro ([4]; 1 μg/mL and 100 μg/mL, 24 hrs): non-mutagenic in vitro; also recorded: statistically no mutagenic effect | Level of mutagenic effect (numbers) ([4]; 1 μg/ml): 0 | Metaphases chromosome aberrations, % ([4]; 1 μg/ml): 1.5% | Metaphases chromosome aberrations, # ([4]; 1 μg/ml): 15 | Level of mutagenic effect (numbers) ([4]; 100 μg/ml): 0 | Metaphases chromosome aberrations, % ([4]; 100 μg/ml): 1.6% | Metaphases chromosome aberrations, # ([4]; 100 μg/ml): 16 | Chronic toxicity [5]: without adverse effects | Side effects (Dengue virus): No side effects or allergic effects were observed | Adverse effects in human preclinical trials [6]: without adverse effects | Appearance of label in peripheral blood [7]: rapid, i.e., minutes, appearance of label in peripheral blood | Solubility [8]: soluble in water, DMF; also recorded: insoluble in chloroform and ether | Patients in whom illness was aggravated [9]: 4 | Side effect or allergic reaction [10]: did not induce any visible side effect or allergic reaction
